Only a part of the results on these compounds is given; other tests are left out.
Test system: 5'-nucleotidase
Settings: breakdown by 5'-nucleotidase, in words

For methyl-5'-inosine-phosphonate, the resistance to hydrolysis was “extremely resistant to hydrolysis”.

Reference: patent EP0821692B1, “IMMUNOPOTENTIATING INOSINE MONOPHOSPHATE 5'-NUCLEOTIDASE RESISTANT DERIVATIVES AND USES THEREOF” (UNIVERSITY OF SOUTH FLORIDA, priority 1995, dated 1996)
